Reference: US20120244230A1, “POLYVALENT POLYNUCLEOTIDE NANOPARTICLE CONJUGATES AS DELIVERY VEHICLES FOR A CHEMOTHERAPEUTIC AGENT” (priority 2009, published 2012)

Tests used:
[1] = test system: HeLa cells
Procedure: (§1) Human cervical cancer HeLa, human osteosarcoma U2OS, human prostate PC3 cell lines were procured from the ATCC. A549 lung carcinoma cells were obtained from Prof. David E. Root, Whitehead Institute for Biomedical Research. HeLa, U2OS, and A549 Cells were grown at 37° C. in 5% CO2 in DMEM medium supplemented with 10% fetal bovine serum and 1% penicillin/streptomycin. PC3 cells were grown at 37° C. in 5% CO2 in RPMI supplemented with 10% fetal bovine serum and 1% penicillin/streptomycin. Cells were passed every 3 to 4 days and restarted from frozen stocks upon reaching pass number 20.
(§2) In order to investigate the efficacy of Pt-DNA-Au NPs, their ability to kill cancer cells of various origin was measured. […] Cells were seeded on a 96 well plate in 100 μL media and incubated for 24 hours. The cells were then treated with Pt-DNA-Au NP, 1, or cisplatin, separately at varying concentrations and incubated for 72 hours at 37° C. Medium was removed, cells were washed with PBS and then incubated with cell culture medium containing 20% 3-(4,5-dimethylthiazol-2-yl)-2,5-diphenyltetrazolium bromide (MTT). […] Cells were further incubated overnight and the absorbance was measured at 620 nm using a BioTek Synergy HT multi-detection microplate plate reader. […]

[2] = test system: U2OS cells
Procedure: as §1, §2

Compound: [NH2][Pt]([NH2])([OH])([Cl])([Cl])[O]C(=O)CCC(=O)O [Compound 1, c,c,t-[Pt(NH3)2Cl2(OH)(O2CCH2CH2CO2H)]]
- cytotoxicity (in words) [1]: did not show any significant killing
- cytotoxicity (in words) [2]: did not show any significant killing
